Each compound was assayed against Recombinant heterodimeric HCV NS3/NS4A protease (strain 1a) (Hepatitis C virus genotype 1a, UniProt P27958) (assay: Spectrophotometric assay for HCV protease inhibitory activity). Conditions: Table 1, range.
Assay type: biochemical

The chains behind the UniProt entries cited, without tags or fusion partners. Residues count along the entry.
UniProt P27958, 1027-1657: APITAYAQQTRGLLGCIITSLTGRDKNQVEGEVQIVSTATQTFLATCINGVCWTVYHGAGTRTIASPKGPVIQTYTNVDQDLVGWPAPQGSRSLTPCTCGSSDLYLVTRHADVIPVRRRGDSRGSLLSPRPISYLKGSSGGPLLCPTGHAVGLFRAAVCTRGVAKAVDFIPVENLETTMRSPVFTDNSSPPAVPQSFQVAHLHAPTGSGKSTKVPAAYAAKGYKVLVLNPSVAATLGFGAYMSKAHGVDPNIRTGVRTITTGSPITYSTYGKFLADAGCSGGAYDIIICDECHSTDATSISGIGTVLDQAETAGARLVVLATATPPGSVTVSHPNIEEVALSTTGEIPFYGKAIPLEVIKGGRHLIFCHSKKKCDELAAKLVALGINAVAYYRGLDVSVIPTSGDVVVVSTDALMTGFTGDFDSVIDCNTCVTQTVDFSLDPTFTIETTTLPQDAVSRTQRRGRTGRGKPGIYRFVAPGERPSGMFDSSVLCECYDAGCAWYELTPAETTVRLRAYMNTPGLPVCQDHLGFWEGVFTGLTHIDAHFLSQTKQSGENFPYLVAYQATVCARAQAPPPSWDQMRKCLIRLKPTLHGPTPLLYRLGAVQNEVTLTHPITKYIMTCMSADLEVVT
UniProt P27958, 1658-1711: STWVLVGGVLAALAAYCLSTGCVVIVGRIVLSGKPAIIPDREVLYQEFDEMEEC

Row | Structure (SMILES) | Ki [µM]
1 | C=CCNC(=O)C(=O)C(CCC)NC(=O)[C@@H]1[C@@H]2[C@H](CN1C(=O)[C@@H](NC(=O)N[C@H](CN(C)S(=O)(=O)N(C)C1CC1)C(C)(C)C)C(C)(C)C)C2(C)C (stereo partly shown) [Compound 10095] | ≤ 0.075
2 | CN(C)S(=O)(=O)N(C)C[C@@H](NC(=O)N[C@H](C(=O)N1C[C@H]2[C@@H]([C@H]1C(=O)N[C@H](CC1CC1)C(=O)C(N)=O)C2(C)C)C(C)(C)C)C(C)(C)C [Compound 10021] | ≤ 0.075
3 | C=CCNC(=O)C(=O)C(CCCC)NC(=O)[C@@H]1[C@@H]2[C@H](CN1C(=O)[C@@H](NC(=O)N[C@H](CN(C)S(=O)(=O)N(C)C)C(C)(C)C)C1CCCCC1)C2(C)C (stereo partly shown) [Compound 10079] | ≤ 0.075
4 | C=CCNC(=O)C(=O)C(CC1CC1)NC(=O)[C@@H]1[C@@H]2[C@H](CN1C(=O)[C@@H](NC(=O)N[C@H](CN(C)S(=O)(=O)N(C)C(=O)OC(C)(C)C)C(C)(C)C)C(C)(C)C)C2(C)C (stereo partly shown) [Compound 10089] | ≤ 0.075
5 | C=CCNC(=O)C(=O)C(CCCC)NC(=O)[C@@H]1[C@@H]2[C@H](CN1C(=O)[C@@H](NC(=O)N[C@H](CN(C)S(=O)(=O)N(C)C(=O)OC(C)(C)C)C(C)(C)C)C(C)(C)C)C2(C)C (stereo partly shown) [Compound 10101] | ≤ 0.075
6 | CC(C)(C)[C@H](NC(=O)N[C@H](CNS(=O)(=O)N1CCCCC1)C(C)(C)C)C(=O)N1C[C@H]2[C@@H]([C@H]1C(=O)NC(CC1CC1)C(=O)C(N)=O)C2(C)C (stereo partly shown) [Compound 10004] | ≤ 0.075

Same assay, conditions: Table 2, range

Row | Structure (SMILES) | Ki [µM]
7 | C#CCCC(NC(=O)[C@@H]1[C@@H]2[C@H](CN1C(=O)[C@@H](NC(=O)N[C@H](CN(C)S(C)(=O)=O)C(C)(C)C)C1Cc3ccccc3C1)C2(C)C)C(=O)C(=O)NCCC (stereo partly shown) [Compound 11210] | ≤ 0.075
8 | CN(C[C@@H](NC(=O)N[C@H](C(=O)N1C[C@H](Cl)C[C@H]1C(=O)NC(CC1CC1)C(=O)C(N)=O)C1CCCCC1)C(C)(C)C)S(C)(=O)=O (stereo partly shown) [Compound 11166] | ≤ 0.075
9 | C=CCNC(=O)C(=O)C(CC1CCC1)NC(=O)[C@@H]1[C@@H]2[C@H](CN1C(=O)[C@@H](NC(=O)N[C@H](CN(C)S(C)(=O)=O)C(C)(C)C)C1Cc3ccccc3C1)C2(C)C (stereo partly shown) [Compound 11134] | ≤ 0.075
10 | CCCCC(NC(=O)[C@@H]1[C@@H]2[C@H](CN1C(=O)[C@@H](NC(=O)N[C@H](CN(C)S(C)(=O)=O)C(C)(C)C)C1Cc3ccccc3C1)C2(C)C)C(=O)C(N)=O (stereo partly shown) [Compound 11180] | ≤ 0.075
11 | CN(C[C@@H](NC(=O)N[C@H](C(=O)N1C[C@@H]2OC(C)(C)C[C@@H]2[C@H]1C(=O)NC(CC1CCC1)C(=O)C(N)=O)C1CCCCC1)C(C)(C)C)S(C)(=O)=O (stereo partly shown) [Compound 11057] | ≤ 0.075
12 | C=CCNC(=O)C(=O)C(CCC)NC(=O)[C@@H]1[C@@H]2[C@H](CN1C(=O)[C@@H](NC(=O)N[C@@H](CN(C)S(C)(=O)=O)C(C)C)C(C)(C)C)C2(C)C (stereo partly shown) [Compound 11382] | ≤ 0.075
13 | C=CCNC(=O)C(=O)C(CCC(F)(F)F)NC(=O)[C@@H]1[C@@H]2[C@H](CN1C(=O)[C@@H](NC(=O)NC1(CN(C)S(C)(=O)=O)CCCCC1)C1CCCCC1)C2(C)C (stereo partly shown) [Compound 11065] | ≤ 0.075
14 | C=CCNC(=O)C(=O)C(CC1CC1)NC(=O)[C@@H]1[C@@H]2[C@H](CN1C(=O)[C@@H](NC(=O)N[C@H](CN(C)S(=O)(=O)c1sc(C)nc1C)C1CCCCC1)C1CCCCC1)C2(C)C (stereo partly shown) [Compound 11237] | ≤ 0.075
15 | CCCCC(NC(=O)[C@@H]1[C@@H]2[C@H](CN1C(=O)[C@@H](NC(=O)N[C@H](CN(C)S(=O)(=O)c1cccs1)C(C)(C)C)C1CCCCC1)C2(C)C)C(=O)C(=O)NC (stereo partly shown) [Compound 11315] | ≤ 0.075
16 | CCCCC(NC(=O)[C@@H]1[C@@H]2[C@H](CN1C(=O)[C@@H](NC(=O)N[C@H](CN(C)S(C)(=O)=O)C(C)(C)C)C1Cc3ccccc3C1)C2(C)C)C(=O)C(=O)NC (stereo partly shown) [Compound 11211] | ≤ 0.075
17 | CN(C[C@@H](NC(=O)N[C@H](C(=O)N1C[C@H]2[C@@H]([C@H]1C(=O)NC(CC1CCC1)C(=O)C(N)=O)C2(C)C)C1CCCCC1)C(C)(C)C)S(=O)(=O)c1ccccc1 (stereo partly shown) [Compound 11053] | ≤ 0.075
18 | C=CCNC(=O)C(=O)C(CCC)NC(=O)[C@@H]1[C@@H]2[C@H](CN1C(=O)[C@@H](NC(=O)N[C@H](CN(C)S(C)(=O)=O)[C@@H](C)CC)C(C)(C)C)C2(C)C (stereo partly shown) [Compound 11102] | ≤ 0.075
19 | C=CCNC(=O)C(=O)C(CCCC)NC(=O)[C@@H]1[C@@H]2[C@H](CN1C(=O)[C@@H](NC(=O)N[C@H](CN(C)S(=O)(=O)c1ccc(C)cc1)C(C)(C)C)C(C)(C)C)C2(C)C (stereo partly shown) [Compound 11342] | ≤ 0.075
20 | C=CCNC(=O)C(=O)C(CC=C)NC(=O)[C@@H]1[C@@H]2[C@H](CN1C(=O)[C@@H](NC(=O)N[C@H](CN(C)S(=O)(=O)C(C)(C)C)C(C)(C)C)C(C)(C)C)C2(C)C (stereo partly shown) [Compound 11214] | ≤ 0.075
21 | C=CCNC(=O)C(=O)C(CCC(F)(F)F)NC(=O)[C@@H]1[C@@H]2[C@H](CN1C(=O)[C@@H](NC(=O)NC1(CN(C)S(C)(=O)=O)CCCCC1)C(C)(C)C)C2(C)C (stereo partly shown) [Compound 11059] | ≤ 0.075
22 | C#CCCC(NC(=O)[C@@H]1[C@@H]2[C@H](CN1C(=O)[C@@H](NC(=O)NC1(CN(C)S(=O)(=O)Cc3ccccc3)CCCCC1)C(C)(C)C)C2(C)C)C(=O)C(=O)NCC=C (stereo partly shown) [Compound 11097] | ≤ 0.075
23 | C=CCNC(=O)C(=O)C(CCC)NC(=O)[C@@H]1[C@@H]2[C@H](CN1C(=O)[C@@H](NC(=O)N[C@H](CN(C)S(=O)(=O)c1ccccc1)[C@@H](C)CC)C(C)(C)C)C2(C)C (stereo partly shown) [Compound 11063] | ≤ 0.075
24 | C=CCNC(=O)C(=O)C(CCCC)NC(=O)[C@@H]1[C@@H]2[C@H](CN1C(=O)[C@@H](NC(=O)NC[C@@H](N(C)S(=O)(=O)c1ccccc1)C(C)(C)C)C(C)(C)C)C2(C)C (stereo partly shown) [Compound 11314] | > 0.25
25 | CCCCC(NC(=O)[C@@H]1[C@@H]2[C@H](CN1C(=O)[C@@H](NC(=O)N[C@H](CN(C)S(C)(=O)=O)C(C)(C)C)C1(C)CCCCC1)C2(C)C)C(=O)C(N)=O (stereo partly shown) [Compound 11179] | ≤ 0.075
26 | C=CCNC(=O)C(=O)C(CCCC)NC(=O)[C@@H]1[C@@H]2[C@H](CN1C(=O)[C@@H](NC(=O)N[C@H](CN(C)S(=O)(=O)C(C)C)C(C)(C)C)C(C)(C)C)C2(C)C (stereo partly shown) [Compound 11103] | ≤ 0.075
27 | C=CCNC(=O)C(=O)C(CCC)NC(=O)[C@@H]1[C@@H]2[C@H](CN1C(=O)[C@@H](NC(=O)N[C@H](CN(C)S(=O)(=O)C(C)(C)C)C(C)(C)C)C(C)(C)C)C2(C)C (stereo partly shown) [Compound 11205] | ≤ 0.075
28 | C=CCNC(=O)C(=O)C(CCC(F)(F)F)NC(=O)[C@@H]1C[C@@H](OC(C)(C)C)CN1C(=O)[C@@H](NC(=O)N[C@H](CN(C)S(C)(=O)=O)C(C)(C)C)C1CCCCC1 (stereo partly shown) [Compound 11193] | 0.075 to 0.25
29 | C=CCNC(=O)C(=O)C(CC1CC1)NC(=O)[C@@H]1[C@@H]2[C@H](CN1C(=O)[C@@H](NC(=O)N[C@H](CN(C)S(=O)(=O)c1cccc(Cl)c1)C(C)(C)C)C(C)(C)C)C2(C)C (stereo partly shown) [Compound 11348] | ≤ 0.075
30 | C=CCNC(=O)C(=O)C(CCCC)NC(=O)[C@@H]1[C@@H]2[C@H](CN1C(=O)[C@@H](NC(=O)N[C@H](CN(C)S(=O)(=O)c1ccccn1)C(C)(C)C)C1CCCCC1)C2(C)C (stereo partly shown) [Compound 11277] | ≤ 0.075
31 | CN(CC1(NC(=O)N[C@H](C(=O)N2C[C@H]3[C@@H]([C@H]2C(=O)NC(CC2CCC2)C(=O)C(N)=O)C3(C)C)C(C)(C)C)CCCCC1)S(C)(=O)=O (stereo partly shown) [Compound 11027] | ≤ 0.075
32 | CN(C[C@@H](NC(=O)N[C@H](C(=O)N1C[C@H](Cl)C[C@H]1C(=O)NC(CC1CCC1)C(=O)C(N)=O)C1CCCCC1)C(C)(C)C)S(C)(=O)=O (stereo partly shown) [Compound 11167] | ≤ 0.075
33 | C=CCNC(=O)C(=O)C(CCC(F)(F)F)NC(=O)[C@@H]1[C@@H]2[C@H](CN1C(=O)[C@@H](NC(=O)N[C@H](CN(C)S(C)(=O)=O)C(C)(C)C)C(C)(C)C)C2(C)C (stereo partly shown) [Compound 11043] | ≤ 0.075

Same assay, conditions: Table 3, range

Row | Structure (SMILES) | Ki [µM]
34 | CC[C@H](C)[C@@H](CNS(C)(=O)=O)NC(=O)N[C@H](C(=O)N1C[C@H]2[C@@H]([C@H]1C(=O)NC(CC1CC1)C(=O)C(N)=O)C2(C)C)C(C)(C)C (stereo partly shown) [Compound 12024] | 0.075 to 0.25

Same assay, conditions: Table 4, range

Row | Structure (SMILES) | Ki [µM]
35 | CC(=O)N(C)C[C@@H](NC(=O)N[C@H](C(=O)N1C[C@H]2[C@@H]([C@H]1C(=O)NC(CC1CCC1)C(=O)C(N)=O)C2(C)C)C(C)(C)C)C(C)(C)C (stereo partly shown) [Compound 13002] | ≤ 0.075
36 | C=CCNC(=O)C(=O)C(CC1CCC1)NC(=O)[C@@H]1[C@@H]2[C@H](CN1C(=O)[C@@H](NC(=O)N[C@H](CN(C)C(C)=O)C(C)(C)C)C(C)(C)C)C2(C)C (stereo partly shown) [Compound 13012] | 0.075 to 0.25

Same assay, conditions: Table 5, range

Row | Structure (SMILES) | Ki [µM]
37 | C=CCNC(=O)C(=O)C(CC1CC1)NC(=O)[C@@H]1[C@@H]2[C@H](CN1C(=O)[C@@H](NC(=O)N[C@H](CN(C)C(=O)OC(C)(C)C)C(C)C)C(C)(C)C)C2(C)C (stereo partly shown) [Compound 14034] | > 0.25
38 | COC(=O)N1CCCC(NC(=O)N[C@H](C(=O)N2C[C@H]3[C@@H]([C@H]2C(=O)NC(CC2CCC2)C(=O)C(N)=O)C3(C)C)C(C)(C)C)C1 (stereo partly shown) [Compound 14028] | 0.075 to 0.25
39 | CC(C)[C@@H](CNC(=O)OCC(C)(C)C)NC(=O)N[C@H](C(=O)N1C[C@H]2[C@@H]([C@H]1C(=O)NC(CC1CCC1)C(=O)C(N)=O)C2(C)C)C(C)(C)C (stereo partly shown) [Compound 14011] | ≤ 0.075
40 | CC(C)(C)OC(=O)N1CC[C@H](NC(=O)N[C@H](C(=O)N2C[C@@H]3OC(C)(C)C[C@@H]3[C@H]2C(=O)NC(CC2CC2)C(=O)C(N)=O)C2CCCCC2)C1 (stereo partly shown) [Compound 14045] | > 0.25
41 | CC(C)COC(=O)NC[C@@H](NC(=O)N[C@H](C(=O)N1C[C@H]2[C@@H]([C@H]1C(=O)NC(CC1CCC1)C(=O)C(N)=O)C2(C)C)C(C)(C)C)C(C)C (stereo partly shown) [Compound 14009] | ≤ 0.075

Same assay, conditions: Table 5A, range

Row | Structure (SMILES) | Ki [µM]
42 | C=CCNC(=O)C(=O)C(CCCC)NC(=O)[C@@H]1[C@@H]2[C@H](CN1C(=O)[C@@H](NC(=O)N[C@H](CN(CC)S(=O)(=O)CC)C(C)(C)C)C1Cc3ccccc3C1)C2(C)C (stereo partly shown) [Compound 11401] | ≤ 0.075
43 | CCCCC(NC(=O)[C@@H]1[C@@H]2[C@H](CN1C(=O)[C@@H](NC(=O)N[C@H](CN(CC)S(=O)(=O)CC)C(C)(C)C)C1Cc3ccccc3C1)C2(C)C)C(=O)C(=O)NCC (stereo partly shown) [Compound 11402] | ≤ 0.075

Same assay, conditions: Table 6

Row | Structure (SMILES) | Ki [µM]
44 | C=CCNC(=O)C(=O)C(CCCC)NC(=O)[C@@H]1[C@@H]2[C@H](CN1C(=O)[C@@H](NC(=O)N[C@H](CN(CC)S(=O)(=O)CC)C(C)(C)C)C1Cc3ccccc3C1)C2(C)C (stereo partly shown) [Compound 11401] | 0.006
45 | CCCCC(NC(=O)[C@@H]1[C@@H]2[C@H](CN1C(=O)[C@@H](NC(=O)N[C@H](CN(CC)S(=O)(=O)CC)C(C)(C)C)C1Cc3ccccc3C1)C2(C)C)C(=O)C(=O)NCC (stereo partly shown) [Compound 11402] | 0.01
46 | C=CCNC(=O)C(=O)C(CCCC)NC(=O)[C@@H]1[C@@H]2[C@H](CN1C(=O)[C@@H](NC(=O)N[C@H](CN(C)S(=O)(=O)CC)C(C)(C)C)C1Cc3ccccc3C1)C2(C)C (stereo partly shown) [drawing 62] | 0.0058

From US7759499B2, “Compounds as inhibitors of hepatitis C virus NS3 serine protease” (Schering Corporation, priority 2004, dated 2010)
